Reference: PubChem BioAssay AID588478 (ICCB-Longwood Screening Facility, Harvard Medical School, 2011)
The list shows a part of the results, in another mix than the full data. Some salts and complexes are drawn in separate pieces, as the source files them; their charges need not balance. Activity calls are given as the source filed them.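 The calls were made as follows: active = mean inhibition over replicate wells above about 20% (limit read from the data); inactive = the rest.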

Chains of the proteins cited; added tags and fusions are not shown.
UniProt Q9Y5K5, whole entry: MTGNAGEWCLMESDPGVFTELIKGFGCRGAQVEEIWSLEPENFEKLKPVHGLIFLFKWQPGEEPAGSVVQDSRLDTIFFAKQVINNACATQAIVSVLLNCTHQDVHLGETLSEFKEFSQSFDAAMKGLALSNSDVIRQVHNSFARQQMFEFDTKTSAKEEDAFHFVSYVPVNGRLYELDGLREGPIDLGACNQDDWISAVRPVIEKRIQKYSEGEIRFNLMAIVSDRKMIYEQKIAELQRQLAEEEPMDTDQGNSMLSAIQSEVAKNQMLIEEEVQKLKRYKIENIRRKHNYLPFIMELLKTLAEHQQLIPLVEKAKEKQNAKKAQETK

The compounds below were run against Ubiquitin carboxyl-terminal hydrolase isozyme L5 (Homo sapiens) (UniProt Q9Y5K5) (assay: inhibitors of human UCH37 deubiquitinase, primary screen, biochemical, Ub-AMC cleavage, fluorescence (AID 588478;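 also: 0% = compound-free wells with enzyme and 100% = wells lacking proteasome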)). Conditions: purified proteasome/UCH37, Ub-AMC cleavage fluorescence; hits give high values; concentration not given here.
Summary of the method: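 Assay system: Proteasome-bound UCH37. Buffer or medium: pH 7.4 Tris-HCl (50 mM) with ovalbumin, ATP-MgCl2, DTT. Incubation: 30 min preincubation with enzyme, 25 min cleavage at room temperature. Measured by: fluorescence, ex 355 nm, em 460 nm. Read-out basis: percent inhibition. Control set: wells without proteasome as full block, compound-free enzyme plus substrate as uninhibited.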

SMILES | inhibition
Cc1ccccc1NP(C)(=O)Nc1ccccc1C | inactive: 5.15%
CP(=O)(Nc1ccc2c(c1)OCCO2)Oc1ccccc1 (stereo not drawn) | inactive: 0.652%
c1nnnn1CCn1cnnn1 | inactive: -2.5%
CCOP(C)(=S)SCC(=O)NC(C)(CC)C(=O)O (stereo not drawn) | inactive: 5.07%
O=P(Nc1nccs1)(c1ccccc1)c1ccccc1 | inactive: -0.697%
CC(C)C(=O)NC(Sc1ccccc1)C(Cl)(Cl)Cl (stereo not drawn) | inactive: 3.91%
CCNC(=S)N=C(N)N[N+](=O)[O-] | inactive: 3.96%
CP(=O)(Nc1ccc(SC(F)(F)F)cc1)Oc1ccc(F)cc1 (stereo not drawn) | inactive: 6.22%
O=C(OC1CN2CCC1CC2)c1cccc(Cl)c1 (stereo not drawn) | inactive: 5.82%
O=[N+]([O-])c1ccc(O)c(C=NNc2ccc([N+](=O)[O-])cc2[N+](=O)[O-])c1 | inactive: 11.4%
Cc1c(C(c2ccc3c(c2)OCO3)c2c(C)n(C)n(-c3ccccc3)c2=O)c(=O)n(-c2ccccc2)n1C.O=[N+]([O-])c1cc([N+](=O)[O-])c(O)c([N+](=O)[O-])c1 | inactive: 4.65%
Nc1ccc([As](=O)(O)c2ccc([N+](=O)[O-])cc2)cc1 | inactive: 0.902%
C(Cc1nn[nH]n1)Cc1nn[nH]n1 | inactive: 2.54%
O=[As](O)(c1ccccc1)c1ccc(O)cc1 | inactive: 1.99%
Cc1cc(-c2cccc3ccccc23)c(C)cn1.O=[N+]([O-])c1cc([N+](=O)[O-])c(O)c([N+](=O)[O-])c1 | inactive: 13.7%
O=[N+]([O-])c1cc([N+](=O)[O-])c(NCC2CCS(=O)(=O)C2)c([N+](=O)[O-])c1 (stereo not drawn) | inactive: 4.91%
O=[N+]([O-])c1ccc(OP2(=O)COCCO2)cc1 (stereo not drawn) | inactive: 2.22%
CC(=O)NC(SC(=S)N(C)C)C(Cl)(Cl)Cl (stereo not drawn) | inactive: 0.316%
O=[N+]([O-])c1ncn(CCn2cnc([N+](=O)[O-])n2)n1 | inactive: 4.99%
COc1ccc(NP(C)(=O)Oc2ccccc2OC)cc1 (stereo not drawn) | inactive: 5.92%
O=P(Nc1nc2ccccc2s1)(c1ccccc1)c1ccccc1 | inactive: 4.42%
CCN(C(=NP(=O)(N1CCOCC1)N1CCOCC1)N1CCOCC1)c1ccc(OC)cc1 | inactive: 0.607%
C[C@H]1OP(=O)(Oc2ccccc2)[C@H](O)[C@H](O)[C@H]1N=[N+]=[N-] (stereo partly drawn) | inactive: -0.258%
C=CCN1CCN(CCOC(=O)C(O)(c2ccccc2)c2ccccc2)CC1 | inactive: 4.57%
CN(C)C1(CNC(=O)c2ccc(Cl)c(S(N)(=O)=O)c2)CCCCC1 | inactive: 3.17%

SMILES | inhibition
O=P(Nc1ccccn1)(c1ccc(Br)cc1)c1ccc(Br)cc1 | inactive: -1.53%
COc1ccc(OP(C)(=O)Nc2cccc(Br)c2)cc1 (stereo not drawn) | inactive: 0.372%
CC(C)C=NN=C(N)N[N+](=O)[O-] | inactive: 3.61%
COc1ccc(N)c([N+](=O)[O-])c1[N+](=O)[O-] | inactive: 7.97%
Cc1ccccc1OP(=O)(Nc1ccccn1)Oc1ccccc1C | inactive: -0.881%
CC(NC(=O)COC(=O)C(O)(c1ccccc1)c1ccccc1)c1ccccc1 (stereo not drawn) | inactive: -2.71%
CN(C)C(=O)Oc1noc2ccccc12 | inactive: 6.28%
O=[N+]([O-])c1cc([N+](=O)[O-])c(OC2CCCCC2O)c([N+](=O)[O-])c1 (stereo not drawn) | inactive: 13.5%
O=c1c2cc([N+](=O)[O-])ccc2[nH]c2c([N+](=O)[O-])cc([N+](=O)[O-])cc12 | inactive: 11.4%
CP(=O)(Nc1ccccc1)Oc1ccc(F)cc1 (stereo not drawn) | inactive: 3.03%
O=C(OC1CN2CCC1CC2)c1ccccc1 (stereo not drawn) | inactive: 0.921%
CCC(=O)N1C2C3N(C(=O)CC)C1C1N(C(=O)CC)C(C(N1C(=O)CC)N3C(=O)CC)N2C(=O)CC | inactive: 4.09%
CCN(CC)CCCOC(=O)C(O)(c1ccccc1)C1CCCCC1 (stereo not drawn) | inactive: 5.82%
COC(=O)c1cc2c(s1)N=C(c1ccccc1)N(C)P2(=O)N1CCOCC1 (stereo not drawn) | inactive: 5.98%
Cc1c([N+](=O)[O-])cc([N+](=O)[O-])c(Br)c1[N+](=O)[O-] | inactive: 11.9%
CC(=O)NC(SC(=S)N(CC(C)C)CC(C)C)C(Cl)(Cl)Cl (stereo not drawn) | inactive: 1.84%
Cc1ccc(OP(=O)(Nc2ccccn2)Oc2ccc(C)cc2)cc1 | inactive: 3.03%
COc1ccc(OP(C)(=O)Nc2ccc(SC(F)(F)F)cc2)cc1 (stereo not drawn) | inactive: 5.26%
O=P1(N(CCCl)CCCl)OCCC2CCCCN21 (stereo not drawn) | inactive: 4.2%
CCOC(=O)c1ccc(NP(C)(=O)Oc2ccc(F)cc2)cc1 (stereo not drawn) | inactive: 3.61%
c1ccc(-c2nn[nH]n2)c(-c2nn[nH]n2)c1 | inactive: -1.92%
Cc1ccc(NP(=O)(Oc2cccc(C)c2)Oc2cccc(C)c2)nc1 | inactive: 2.56%
O=C(NC1CCS(=O)(=O)C1)NP(=S)(Oc1ccccc1)Oc1ccccc1 (stereo not drawn) | inactive: 0.976%
COc1ccc2c(c1O)-c1c(O)c(OC)cc3c1[C@H](C2)[N+](C)(C)CC3.O=[N+]([O-])c1cc([N+](=O)[O-])c([O-])c([N+](=O)[O-])c1[O-] | inactive: -66.8%
CC(=O)Nc1ccc([As](=O)(O)O)c(O)c1 | inactive: 1.99%

SMILES | inhibition
O=C(OCCN1CCN(CCOCc2ccccc2)CC1)C(O)(c1ccccc1)c1ccccc1 | inactive: 0.711%
Cc1ccccc1CN(C)C(=O)COC(=O)C(O)(c1ccccc1)c1ccccc1 | inactive: 3.37%
C[C@@H]1C=CCP(=O)(Oc2ccccc2)O1 (stereo partly drawn) | inactive: -0.391%
C[C@H]1OP(=O)(Oc2ccccc2)C[C@@H]2O[C@@H]21 (stereo partly drawn) | inactive: -1.51%
NC(=NO)c1c(N)no[n+]1[O-] | inactive: 0.589%
CC(=O)c1ccc(N2CC2c2ccncc2)cc1 (stereo not drawn) | inactive: 4.38%
O=C(OC1CN2CCC1CC2)c1ccc([N+](=O)[O-])cc1 (stereo not drawn) | inactive: 6%
CC(C)(C)C(=O)NC(Sc1ccccc1)C(Cl)(Cl)Cl (stereo not drawn) | inactive: 2.97%
CCc1cc(O)c([N+](=O)[O-])c(C)c1[N+](=O)[O-] | inactive: 2.83%
CP(=O)(Nc1ccccc1F)Oc1ccccc1 (stereo not drawn) | inactive: 3.04%
O=P1(Nc2nc3ccc(Cl)cc3s2)COc2ccccc2O1 (stereo not drawn) | inactive: -0.543%
CCOc1ccc(C2=NCC(CBr)S2)cc1 (stereo not drawn) | inactive: 8.4%
CCc1ccc(OP(C)(=O)O)cc1 | inactive: 8.94%
CP(=O)(Nc1ccccn1)Oc1ccccc1 (stereo not drawn) | inactive: 0.577%
COc1ccccc1OP(C)(=O)Nc1ccc(C)cc1C (stereo not drawn) | inactive: 0.643%
Oc1ccccc1CNc1ccccn1 | inactive: 0.583%
O=C(NC(Sc1ccncn1)C(Cl)(Cl)Cl)c1ccccc1 (stereo not drawn) | inactive: -5.36%
O=[N+]([O-])c1cc([N+](=O)[O-])c(Nc2ccccn2)c([N+](=O)[O-])c1 | inactive: 12.3%
CC(C)CC(=O)NC(Sc1ccc(Cl)cc1)C(Cl)(Cl)Cl (stereo not drawn) | inactive: 2.04%
Nc1cc(N)c2nonc2c1[N+](=O)[O-] | inactive: 12.8%
Cc1c(NP(C)(=O)Oc2ccc(C(C)C)cc2)c(=O)n(-c2ccccc2)n1C (stereo not drawn) | inactive: 5.03%
CN(C)CCOC(=O)C(O)(c1ccccc1)C1CCCC1 (stereo not drawn) | inactive: 1.29%
Clc1ccc(Cl)c(NC2=NCC(CBr)S2)c1 (stereo not drawn) | inactive: 5.96%
CN1CCCC(OC(=O)C(c2ccccc2)c2ccccc2)C1 (stereo not drawn) | inactive: 2.68%
COc1ccc(OP(C)(=O)Nc2ccccn2)cc1 (stereo not drawn) | inactive: 4.42%

SMILES | inhibition
COc1ccccc1OP(=O)(Nc1ccc(C)cn1)Oc1ccccc1OC | inactive: 3.45%
Cc1ccc(OP(=O)(Nc2nccs2)Oc2ccc(C)cc2)cc1 | inactive: 2.77%
COc1ccccc1OP(C)(=O)Nc1ccc(Br)cc1 (stereo not drawn) | inactive: 3.34%
CN(C(=O)Cc1ccc(Cl)c(Cl)c1)[C@H]1CCCC[C@H]1N1CCCC1 | inactive: 2.63%
NC(=O)c1cc([N+](=O)[O-])cc([N+](=O)[O-])c1N | inactive: 13.1%
CP(=O)(Nc1ccc(Cl)cc1Cl)Oc1ccccc1 (stereo not drawn) | inactive: 1.77%
CC(C)N1C(=O)CC2(CCN(CCOC(=O)C(O)(c3ccccc3)c3ccccc3)CC2)C1=O | inactive: 0.633%
CCN(N=Nc1nonc1N)c1nonc1N | inactive: 9.55%
COc1ccc(OP(C)(=O)Nc2ccccc2Br)cc1 (stereo not drawn) | inactive: 1.57%
CC(C)=NN=C(N)N[N+](=O)[O-] | inactive: 3.74%
CCOP(=O)(Nc1ccccc1)OCC | inactive: 0.542%
Cc1cc(SC(NC(=O)c2ccc(F)cc2)C(Cl)(Cl)Cl)ncn1 (stereo not drawn) | inactive: -8.32%
CN(C(=O)Cc1ccc(Cl)c(Cl)c1)[C@H]1CCCC[C@@H]1N1CCCC1 | inactive: 6.03%
Cc1ccc(NP(=O)(Oc2ccccc2F)Oc2ccccc2F)nc1 | inactive: -17.8%
COc1ccccc1OP(C)(=O)Nc1ccc(C)c(C)c1 (stereo not drawn) | inactive: 1.44%
O=C1C(O)=C([N+](=O)[O-])C(=O)C(O)=C1[N+](=O)[O-] | inactive: 3.73%
Cc1cc(C)cc(OP(C)(=O)Nc2cccc(C(F)(F)F)c2)c1 (stereo not drawn) | inactive: 3.17%
O=P(Nc1nc2ccc(Cl)cc2s1)(c1ccccc1)c1ccccc1 | inactive: 5.19%
O=C(O)c1ccccc1[As](=O)(O)O | inactive: 1.73%
CC(=O)Nc1ccc([As](=O)(O)O)cc1 | inactive: -0.983%
CCN(CC)CC(C)C(C)OC(=O)C(O)(c1ccccc1)c1ccccc1 (stereo not drawn) | inactive: 1.03%
CCCC1OP(N)(=O)OCC1CC (stereo not drawn) | inactive: 3.68%
O=C(O)CNc1ccc([As](=O)(O)O)cc1 | inactive: 1.85%
